Data on 1 substance can be found in patent US20080152641A1, “Inhibitors of Siderophore Biosynthesis in Fungi” (Autria Wirtschaftsservice, priority 2004, published 2008).

For this assay, the system named is ΔsidA/ΔftrACEA17. The assay is described as follows: Growth of double mutant ΔsidA/ΔftrACEA17 on different iron sources. The class given is cell-based, Aspergillus fumigatus. The conditions noted are these: 10 μM as the sole iron source. How it is done: 10^4 conidia of the respective strain were point-inoculated on AMM plates containing the respective iron source, and incubated for 48 h at 37° C. Blood agar was AMM containing 5% sheep blood.
To analyze the potential role of FtrA in iron uptake of A. fumigatus we deleted the encoding gene in ΔsidACEA17 by replacement with the hygromycin resistance (hph) marker (Punt (1987), loc. cit.).

With “ferritin: host iron compound tested as sole iron source”, the “growth of ΔsidA/ΔftrACEA17 on host iron compound as sole iron source” value is “failed to grow”.
